Ab-14 light chain CDR variants: yeast mating affinities

Source: Li et al. 2023 (doi:10.1038/s41467-023-39022-2), MIT Lincoln Laboratory and A-Alpha Bio; data file from the FLAb repository.

Target: peptide PDVDLGDISGINAS, taken from heptad repeat 2 (HR2) of SARS-CoV-2 spike.

Each scFv is VH, a (GGGGS)3 linker, VL, as in the parent Ab-14, and differs from it in the CDRs of the light chain only.
VH: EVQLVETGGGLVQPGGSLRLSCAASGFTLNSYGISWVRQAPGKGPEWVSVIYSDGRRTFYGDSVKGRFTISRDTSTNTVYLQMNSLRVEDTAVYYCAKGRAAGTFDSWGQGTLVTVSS
VL: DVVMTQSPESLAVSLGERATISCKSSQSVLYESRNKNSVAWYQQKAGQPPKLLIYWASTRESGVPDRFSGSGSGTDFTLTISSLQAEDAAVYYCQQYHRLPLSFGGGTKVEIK

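The variants were designed computationally from a first round of random CDR variants and then made and measured. Their group label is 14L_GP_Gen (GP: Gaussian process model; Gen: genetic algorithm; a sequence that several methods proposed may carry one label only). Affinity was read by AlphaSeq, a pooled yeast mating assay with surface-displayed partners. Pairs that bind mate more often; barcode pairs of the diploids are counted by sequencing. Each replicate has its own calibration line, from reference interactions of the BCL2 family. The assay was run in six technical replicates.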

Each variant is given by its three light chain CDRs, as the data file delimits them; those of the parent are KSSQSVLYESRNKNSVA, WASTRES, QQYHRLPLS.
Affinities are written as log10 Kd with Kd in nM; a lower number is a better binder.
An entry "ND" has no value in the source: the pair was not observed among the diploids in that replicate. This suggests poor binding but is not conclusive.
A sequence measured in both rounds can read differently, since the two assays cover different ranges.
The parent sequence was in this pool as ten entries: three were never detected, three once, and four in most replicates, with averages from 0.34 to 2.37.
The authors averaged sequences with at least three values out of six and counted those with two or fewer as poor binders.
As a blank, each scFv also met three strains without target: over all light chain designs, 4% of these pairings were detected, typically at 2.64 and seldom below 1.59. The control count says in how many pairings with the empty strains this scFv gave a signal, with their mean in brackets.

CDR-L1	CDR-L2	CDR-L3	replicates, log10 nM	empty controls
KLWQSWLYESRNKNSVA	NASTRES	QQYHRLPLS	-0.14 / 0.03 / -0.02 / -0.05 / -0.35 / -0.23	2/18 (2.12)
KLYQSQLYESRNKNSVA	NASTRES	QQYHRLPLS	0.29 / -0.40 / -0.07 / -0.49 / -0.61 / -0.28	1/18 (1.37)
KLSQSVMYEERNKNSVA	NASTRES	QQYHRLPLS	0.11 / -0.31 / -0.23 / -0.14 / -0.09 / -0.14	1/18 (1.99)
KLSQSVLYESRNKNSVA	HASTRES	QDYHRLPLS	-0.03 / 0.00 / 0.20 / -0.16 / -0.05 / 0.21	1/18 (2.28)
KLMQSVLYESRNKNSVA	NASTRED	QQYHRLPLS	0.09 / 0.07 / -0.12 / -0.25 / -0.21 / 0.14	0/18
KLSQSVLYESRNKNSVA	NASLRES	QQYHRLPLS	-0.18 / -0.08 / -0.35 / -0.53 / -0.37 / -0.02	2/18 (3.78)
KLSQSHLYESRNKNSVA	DASQRES	QQYHRLPLS	-0.10 / -0.13 / -0.18 / -0.32 / -0.19 / -0.10	1/18 (2.38)
KLSQSWLYESRNKNSVA	EASTREQ	QQYHRLPLS	-0.26 / -0.43 / -0.54 / -0.50 / -0.44 / -0.32	0/18
KLMQSELYESRNKNSVA	NASTRMS	QQYHRLPLS	0.28 / 0.37 / 0.39 / 0.33 / 0.43 / 0.33	3/18 (3.57)
KLSQSWLYESRNKNSVA	DASTRLS	QQYHRLPLS	-0.01 / 0.00 / -0.04 / -0.45 / -0.05 / -0.05	1/18 (2.18)
KLSQSYLYESRMKNSVA	NASQRES	QQYHRLPLS	0.21 / 0.01 / 0.23 / 0.06 / 0.14 / 0.25	1/18 (1.79)
KVSQSVDYESRNKNSVA	EASTRES	QQYHRLPLS	-0.05 / -0.11 / -0.29 / -0.52 / -0.43 / -0.26	0/18
KVSQSVLYESRNKNSVA	NASTREQ	QQYHRLPLS	-0.09 / -0.06 / -0.19 / -0.25 / -0.22 / 0.03	0/18
KLSQSVLYESRNKNSVA	HASTRES	QQYHRLPLM	0.00 / -0.36 / -0.23 / -0.37 / -0.19 / -0.06	0/18
KFSQSQLYESRNKNSVA	EASTRES	QQYHRLPLS	0.03 / -0.08 / -0.11 / -0.20 / -0.17 / 0.08	1/18 (3.03)
KLSQSFLYEERNKNSVA	NASTRES	QQYHRLPLS	-0.38 / -0.64 / -0.61 / -0.68 / -0.48 / -0.38	1/18 (3.13)
KLYQSELYESRNKNSVA	NASYRES	QQYHRLPLS	0.29 / 0.20 / 0.12 / 0.14 / 0.18 / 0.37	7/18 (4.03)
KVPQSVLYESRNKNSVA	EASTRES	QQYHRLPLS	0.03 / 0.07 / -0.02 / 0.26 / 0.03 / 0.14	3/18 (2.97)
KLSQSVLYEDRNKNSVA	NASTRES	QQYHRLPLS	-0.29 / -0.23 / -0.44 / -0.59 / -0.35 / -0.21	1/18 (2.90)
KISQSVLYESRNKNSVA	NASQRLS	QQYHRLPLS	-0.15 / -0.15 / -0.15 / 0.08 / 0.11 / 0.22	0/18
KLSQSNLYESRNKNSVA	HASTRES	QQYHRLPLS	0.19 / 0.24 / 0.14 / 0.07 / 0.22 / 0.32	2/18 (3.02)
KVSQSHLYESRNKNAVA	NASQRES	QQYHRLPLS	0.21 / 0.13 / 0.18 / 0.33 / 0.69 / 0.61	2/18 (2.44)
KLSQSVLYESRQKNSVA	NASTREM	QQYHRLPLS	-0.21 / -0.42 / -0.51 / -0.30 / -0.25 / -0.18	1/18 (3.68)
KLEQSQLYESRNKNNVA	NASTRES	QQYHRLPLS	-0.47 / -0.52 / -0.60 / -0.70 / -0.63 / -0.43	2/18 (3.98)
KSSQSWLYESRNKNSVA	NASTRES	QQYHRLPLS	-0.34 / -0.38 / -0.43 / -0.61 / -0.47 / -0.35	0/18
KMSQSVLYEDRNKNSVA	NASTRES	QQYHRLPLS	-0.06 / -0.27 / -0.50 / -0.46 / -0.38 / -0.27	2/18 (3.35)
KLQQSWEYESRNKNSVA	NASTRMS	QQYHRLPLS	0.81 / 1.29 / 0.67 / 1.05 / 0.52 / 1.42	2/18 (2.72)
KLQQSQLYESRNKNSVA	NASYRES	QQYHRLPLS	0.19 / 0.46 / 0.13 / 0.12 / 0.15 / 0.13	0/18
KLSQSWLYESRNKNSVA	HASTRCS	QQYHRLPLS	0.49 / 0.34 / 0.35 / 0.10 / 0.22 / 0.47	1/18 (2.25)
KLQQSVLYESRNKNSVA	NASYRMS	QQYHRLPLS	0.25 / 0.22 / 0.23 / 0.01 / 0.11 / 0.21	2/18 (2.83)
KVPQSFLYESRNKNSVA	EASTRES	QQYHRLPLS	0.42 / 0.27 / 0.20 / -0.09 / 0.29 / 0.40	0/18
KLPQSVLYESRNKNSVA	EASTRED	QQYHRLPLS	-0.59 / -0.65 / -0.56 / -0.39 / -0.42 / -0.40	1/18 (3.44)
KLSQSELYESRNKNNVA	DASTRES	QQYHRLPLS	-0.26 / -0.39 / -0.47 / -0.39 / -0.41 / -0.11	1/18 (2.57)
KLSQSVLYESRNKNSVA	NASTRES	QQYHRLPLI	0.30 / 0.05 / -0.13 / -0.19 / 0.11 / 0.22	0/18
KLSQSMLYESRQKNSVA	NASQRES	QQYHRLPLS	0.02 / 0.02 / 0.01 / 0.07 / -0.01 / 0.09	0/18
KLEQSVPYESRNKNSVA	EASTRES	QQYHRLPLS	-0.19 / -0.28 / -0.24 / -0.49 / -0.44 / -0.30	1/18 (3.64)
KLSQSWLYESRNKNSVA	DASTRES	QQYHRLPLS	-0.62 / -0.66 / -0.84 / -0.81 / -0.73 / -0.75	0/18
KLQQSQLYESRNKNSVA	QASQRES	QQYHRLPLS	0.05 / 0.05 / -0.15 / -0.25 / -0.11 / -0.10	1/18 (3.25)
KLSQSVLYESRNKNSVA	QASTRCS	QQYHRLPLS	0.17 / -0.19 / 0.02 / -0.21 / -0.30 / 0.06	1/18 (2.11)
KLSQSQLYESRNKMSVA	NASTRES	QQYHRLPLS	-0.12 / -0.22 / -0.20 / -0.29 / -0.26 / -0.08	1/18 (3.44)
KLSQSYLYESRNKNSVA	NASTREW	QQYHRLPLS	0.31 / -0.06 / -0.05 / -0.07 / -0.11 / 0.19	1/18 (2.89)
KLSQSVLYESRNKWSVA	EASTRES	QQYHRLPLS	0.20 / 0.03 / -0.16 / 0.01 / 0.16 / -0.03	2/18 (3.22)
KLSQSELYESRMKNSVA	NASQRMS	QQYHRLPLS	0.36 / 0.17 / -0.23 / -0.07 / -0.06 / -0.20	0/18
KVQQSNLYESRNKNSVA	NASYRES	QQYHRLPLS	0.30 / 0.17 / 0.39 / 0.24 / 0.09 / 0.18	0/18
KLSQSQLYESRMKNSVA	NASTRES	QQYHRLPLS	ND / ND / ND / ND / 2.09 / ND	0/18

Top 6 of the variants detected in all replicates, tightest first:

CDR-L1	CDR-L2	CDR-L3	replicates, log10 nM	empty controls
KLSQSWLYESRNKNSVA	DASTRES	QQYHRLPLS	-0.62 / -0.66 / -0.84 / -0.81 / -0.73 / -0.75	0/18
KLEQSQLYESRNKNNVA	NASTRES	QQYHRLPLS	-0.47 / -0.52 / -0.60 / -0.70 / -0.63 / -0.43	2/18 (3.98)
KLSQSFLYEERNKNSVA	NASTRES	QQYHRLPLS	-0.38 / -0.64 / -0.61 / -0.68 / -0.48 / -0.38	1/18 (3.13)
KLPQSVLYESRNKNSVA	EASTRED	QQYHRLPLS	-0.59 / -0.65 / -0.56 / -0.39 / -0.42 / -0.40	1/18 (3.44)
KSSQSWLYESRNKNSVA	NASTRES	QQYHRLPLS	-0.34 / -0.38 / -0.43 / -0.61 / -0.47 / -0.35	0/18
KLSQSWLYESRNKNSVA	EASTREQ	QQYHRLPLS	-0.26 / -0.43 / -0.54 / -0.50 / -0.44 / -0.32	0/18